Laboratory results reported in patent publication US9133235B2, “Macrocyclic antagonists of the motilin receptor for treatment of gastrointestinal dysmotility disorders” (Ocera Therapeutics, Inc., priority 2006, dated 2015).

The chains behind the UniProt entries cited, without tags or fusion partners.
UniProt O43193, whole entry: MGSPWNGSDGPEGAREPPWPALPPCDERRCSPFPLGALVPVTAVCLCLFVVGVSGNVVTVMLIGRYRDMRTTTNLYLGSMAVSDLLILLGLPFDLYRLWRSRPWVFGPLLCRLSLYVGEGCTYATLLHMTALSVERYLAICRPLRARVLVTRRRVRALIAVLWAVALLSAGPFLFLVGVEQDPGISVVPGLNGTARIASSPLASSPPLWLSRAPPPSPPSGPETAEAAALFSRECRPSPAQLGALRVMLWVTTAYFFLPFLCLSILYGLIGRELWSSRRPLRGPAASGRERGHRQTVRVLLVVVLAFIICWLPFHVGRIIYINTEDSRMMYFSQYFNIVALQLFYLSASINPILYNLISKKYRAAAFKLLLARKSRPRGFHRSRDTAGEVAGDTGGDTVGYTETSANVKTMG

Target: human motilin receptor (Homo sapiens, UniProt O43193)
Test: Competitive radioligand binding assay (motilin receptor)
Details: [125I]-motilin competition, membranes of CHO cells with human motilin receptor

| Ki [nM] | Ki (tested form: TFA) [nM] | Compound |
| --- | --- | --- |
| < 100 |  | CC(C)C1NC(=O)C(Cc2cccc(Cl)c2)NCCOc2ccccc2CCCNC(=O)C(CCC(=N)N)NC1=O (single isomer, unassigned) |
| < 100 |  | CC(C)C1NC(=O)C(Cc2cccc(Cl)c2)NCCOc2ccccc2CCCNC(=O)C(CN(C)C)NC1=O (single isomer, unassigned) |
|  | < 1000 | CC1COc2ccccc2CCCNC(=O)C(CNC(=N)N)NC(=O)C(C(C)C)NC(=O)C(Cc2cccc(Cl)c2)N1 (single isomer, unassigned) |

The remaining lines, values behind:

| Compound | Ki [nM] | Ki (tested form: TFA) [nM] |
| --- | --- | --- |
| CC(C)C1NC(=O)C(Cc2ccc(Cl)cc2)NCCOc2ccccc2CCCNC(=O)C(CN(C)C)NC1=O (single isomer, unassigned) | < 100 |  |
| CC(C)C1NC(=O)C(Cc2ccc(O)cc2)NCCOc2ccccc2CCCNC(=O)C(CNC(=N)N)NC1=O (single isomer, unassigned) | > 1000 |  |
| CC(C)C1NC(=O)C(Cc2cccc(Cl)c2)NCCOc2ccccc2CCCNC(=O)C(CNC2=NCCN2)NC1=O (single isomer, unassigned) | < 100 |  |
| CCCC1NC(=O)C(C(C)C)NC(=O)C(Cc2cc(I)c(O)c(I)c2)NCCOc2ccccc2CCCNC1=O (single isomer, unassigned) | > 1000 |  |
